For one molecule, reporter increase results are on record in PubChem BioAssay AID1321 (The Scripps Research Institute Molecular Screening Center, 2008).

Chains of the proteins cited; added tags and fusions are not shown.
UniProt P30291, whole entry K328M: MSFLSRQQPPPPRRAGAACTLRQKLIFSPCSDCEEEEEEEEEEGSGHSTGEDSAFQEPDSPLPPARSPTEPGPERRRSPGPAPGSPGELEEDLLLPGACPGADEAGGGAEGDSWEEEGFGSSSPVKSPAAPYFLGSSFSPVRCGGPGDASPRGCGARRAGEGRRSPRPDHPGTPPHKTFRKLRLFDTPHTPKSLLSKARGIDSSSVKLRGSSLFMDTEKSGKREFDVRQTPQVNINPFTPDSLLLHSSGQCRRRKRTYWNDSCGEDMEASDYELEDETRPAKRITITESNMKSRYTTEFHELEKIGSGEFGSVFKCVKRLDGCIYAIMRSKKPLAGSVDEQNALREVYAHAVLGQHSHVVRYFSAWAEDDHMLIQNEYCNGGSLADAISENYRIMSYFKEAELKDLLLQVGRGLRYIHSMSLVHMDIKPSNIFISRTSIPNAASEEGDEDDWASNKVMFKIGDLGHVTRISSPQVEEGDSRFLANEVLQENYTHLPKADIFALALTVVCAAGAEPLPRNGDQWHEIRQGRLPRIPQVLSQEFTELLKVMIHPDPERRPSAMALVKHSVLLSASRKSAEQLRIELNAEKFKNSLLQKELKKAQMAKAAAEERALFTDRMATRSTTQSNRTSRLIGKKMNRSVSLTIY

The list shows a part of the results, in another mix than the full data. Active and inactive are the calls of the source.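 Rule for the calls: active = activation above the mean of all tested compounds plus 3 SD, set per screening run (cut at about 8.8% in these data); inactive = the rest.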

The target of this assay is Wee1-like protein kinase (Homo sapiens) (UniProt P30291). The assay is described as follows: compounds stabilizing Wee1-luciferase fusion – cell-based, HeLa, Wee1K328M-luciferase, luminescence, primary screen (AID 1321).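 Note: cells exposed to compound for 20 h before luminescence read; 0% = DMSO alone and 100% = MG132 at 30 µM.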 Particulars: HeLa Luc-Wee1K328M stability, at 5 µM, hits give high values, 100% = proteasome inhibitor MG132 effect.
For `O=[N+]([O-])c1cc([N+](=O)[O-])c(Nc2ccccn2)c([N+](=O)[O-])c1`, the reporter increase is inactive: -3.69%.
